{"source": "patent US8399206B2", "about": "“Methods for diagnosis, prognosis and methods of treatment” (Nodality, Inc., priority 2008, dated 2013)", "molecules": {"B1": {"name": "Il-3 (protein, UniProt P08700 20-152, looked up)", "Interleukin-3": "APMTQTTPLKTSWVNCSNMIDEIITHLKQPPLPLLDFNNLNGEDQDILMENNLRRPNLEAFNRAVKSLQNASAIESILKNLLPCLPLATAAPTRHPIHIKDGDWNEFRRKLTFYLKTLENAQAQQTTLSLAIF"}, "B2": {"name": "IL-3 (protein, UniProt P08700 20-152, looked up)", "Interleukin-3": "B1 Interleukin-3"}}, "key": {"AML blasts": {"system": "AML blasts", "assay": "SCNP / phospho-flow modulated signaling assay, AML study No. 1 (PBMC at diagnosis, CR vs NR)", "assay_type": "cell-based, human", "conditions": "Study No. 1 sensitivity analysis", "description": "The present illustrative example represents how to analyze cells in one embodiment of the present invention. There are several steps in the process, such as the stimulation step, the staining step and the flow cytometry step. The stimulation step of the phospho-flow procedure can start with vials of frozen cells and end with cells fixed and permeabilized in methanol. Then the cells can be stained with an antibody directed to a particular protein of interest and then analyzed using a flow cytometer.\nFrozen cells are thawed in a 37° C. water bath and gently resuspended in the vial and transferred to the 15 mL conical tube. The 15 mL tube is centrifuged at 930 RPM (200×g) for 8 minutes at room temperature. The supernatant is aspirated and the pellet is gently resuspended in 1 mL media A. The cell suspension is filtered through a 70 um cell strainer into a new 15 mL tube. The cell strainer is rinsed with 1 mL media A and another 12 ml of media A into the 15 mL tube. The cells are mixed into an even suspension. A 20 μL aliquot is immediately removed into a 96-well plate containing 180 μL PBS+4% FBS+CD45 Alexa 700+PI to determine cell count and viability post spin. After the determination, the 15 mL tubes are centrifuged at 930 RPM (200×g) for 8 minutes at room temperature. The supernatant is aspirated and the cell pellet is gently resuspended in 4 mL PBS+4 μL Amine Aqua and incubated for 15 min in a 37° C. incubator. 10 mL RPMI+1% FBS is added to the cell suspension and the tube is inverted to mix the cells. The 15 mL tubes are centrifuged at 930 RPM (200×g) for 8 minutes at room temperature. The cells are resuspended in Media A at the desired cell concentration (1.25×10^6/mL). For samples with low numbers of cells (<18.5×10^6), the cells are resuspended in up to 15 mL media. For samples with high numbers of cells (>18.5×10^6), the volume is raised to 10 mL with media A and the desired volume is transferred to a new 15 mL tube, and the cell concentration is adjusted to 1.25×10^6 cells/ml. 1.6 mL of the above cell suspension (concentration at 1.25×10^6 cells/ml) is transferred into wells of a multi-well plate. From this plate, 80 ul is dispensed into each well of a subsequent plate. The plates are covered with a lid (Nunc) and placed in a 37° C. incubator for 2 hours to rest.\nA concentration for each stimulant that is five folds more (5×) than the final concentration is prepared using Media A as diluent. 5× stimuli are arrayed into wells of a standard 96 well v-bottom plate that correspond to the wells on the plate with cells to be stimulated.\nAdding the stimulant: The cell plate(s) are taken out of the incubator and placed in a 37° C. water bath next to the pipette apparatus. The cell plate is taken from the water bath and gently swirled to resuspend any settled cells. With pipettor, the stimulant is dispensed into the cell plate and vortexed at “7” for 5 seconds. The deep well plate is put back into the water bath.\nAdding Fixative: 200 μl of the fixative solution (final concentration at 1.6%) is dispensed into wells and then mixed on the titer plate shaker on high for 5 seconds. The plate is covered with foil sealer and incubated in a 37° C. water bath for 10 minutes. The plate is spun for 6 minutes at 2000 rpm at room temperature. The cells are aspirated using a 96 well plate aspirator (VP Scientific). The plate is vortexed to resuspend cell pellets in the residual volume. The pellet is ensured to be dispersed before the Methanol step (see cell permeabilization) or clumping will occur.\nCell Permeabilization: Permeability agent, for example methanol, is added slowly and while the plate is vortexing. To do this, the cell plate is placed on titer plate shaker and made sure it is secure. The plate is set to shake using the highest setting. A pipetter is used to add 0.6 mls of 100% methanol to the plate wells. The plate(s) are put on ice until this step has been completed for all plates. […]"}, "AML BMMC leukemic blasts": {"system": "AML BMMC leukemic blasts", "assay": "SCNP modulated signaling assay, AML study No. 2 (BMMC, CR vs NR, clinical sub-groups)", "assay_type": "cell-based, human", "conditions": "Study No. 2, all patients", "protocol": "Two independent sets of cryopreserved samples were analyzed sequentially. The first set consisted of 35 peripheral blood mononuclear cell (PBMC) samples derived from AML patients. The second set consisted of 134 cryopreserved bone marrow mononuclear cell (BMMC) samples derived from AML patients. These samples were the same samples used in the previous examples. Sample inclusion criteria required collection prior to initiation of induction chemotherapy, AML classification by the French-American-British (FAB) criteria as M0 through M7 (excluding M3) and availability of clinical annotations.\nIn the first study, induction chemotherapy consisted of at least one cycle of standard cytarabine-based induction therapy (i.e. daunorubicin 60 mg/m^2×3 days, cytarabine 100-200 mg/m^2 continuous infusion×7 days); responses were measured after one cycle of induction therapy. In the second study, cytarabine (200 mg/m^2 to 3 g/m^2) was used in combination with an anthracycline (daunorubicin or idarubicin) or an additional anti-metabolite (e.g. fludarabine or troxacitabine), and sometimes, an experimental agent (Table 16). Responses in this set were measured after completion of induction therapy (>90% after one cycle). […]\nThe median fluorescence intensity (MFI) was computed for each node from the fluorescence intensity levels for the cells in the myeloid population. […]"}, "[1]": {"conditions": "NR samples incl. CRp, negative = down regulation"}}}
{"molecule": "CCCCCCCCCCCCCC(=O)O[C@@H]1[C@@H](C)[C@@]2(O)[C@@H](C=C(CO)C[C@]3(O)C(=O)C(C)=C[C@@H]23)[C@@H]2C(C)(C)[C@]12OC(C)=O", "note": "[PMA, reference compound]", "values": [{"measurement": "Mean Value of CRs, p-Erk Fold", "setting": "AML blasts; CR samples", "result": 1.46}]}
{"molecule": "B1", "values": [{"measurement": "Mean Value of CRs, p-Stat1 Fold", "setting": "AML blasts; CR samples", "result": 0.05}, {"measurement": "Mean Value of NRs, p-Stat1 Fold", "setting": "AML blasts; [1]", "result": "−0.01"}]}
{"molecule": "B2", "values": [{"measurement": "Mean Value of CRs, p-CREB Total Phospho", "setting": "AML blasts; CR samples", "result": 1.51}, {"measurement": "Mean Value of CRs, p-Stat3 Fold", "setting": "AML blasts; CR samples", "result": 0.15}, {"measurement": "Mean Value of NRs, p-CREB Total Phospho", "setting": "AML blasts; NR samples incl. CRp", "result": 2.58}, {"measurement": "Mean Value of NRs, p-Stat3 Fold", "setting": "AML blasts; [1]", "result": "−0.04"}, {"measurement": "Mean Value of CRs, p-Stat5 Fold", "setting": "AML BMMC leukemic blasts; CR samples", "result": 1.99}, {"measurement": "Mean Value of NRs, p-Stat5 Fold", "setting": "AML BMMC leukemic blasts; NR samples", "result": 0.44}]}
